Assay: Solubility of DBAB at various weight ratios of HP-β-CD and γ-CD, total CD 0.5%
Settings: 0.2% by weight of each of HP-β-CD and γ-CD, test method of Table 5

hydroxypropyl-γ-cyclodextrin [HPγ]
effect on solubility of DBAB of adding 0.1% by weight of a further cyclodextrin: did not improve the solubility

Source: patent US11654094B2, “Composition comprising benzoic acid amide compound and cyclodextrin solubilizing agent” (AMOREPACIFIC CORPORATION, priority 2017, dated 2023)
